## Membrane permeability of cyclic peptides

Source: CycPeptMPDB (Li et al. 2023), which took these values from Furukawa et al. 2016, doi:10.1021/acs.jmedchem.6b01246.

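Lipid, pH, incubation time, direction and concentration are not recorded in the data file. The list need not hold all peptides of the study. Entries at the database's floor value (log10 P of -10) are not listed.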

PAMPA is the parallel artificial membrane permeability assay, which has no cells and reads passive diffusion.
Permeability is in 10^-6 cm/s, converted from the database's log10 values; higher is more permeable.

- CCCC[C@@H]1NC(=O)[C@H](CC(C)C)N(C)C(=O)CN(CCCc2ccccc2)C(=O)[C@H](Cc2ccccc2)NC(=O)CN(Cc2cc(CC(C)C)on2)C(=O)[C@H]2CCCN2C1=O: PAMPA 0.046 × 10^-6 cm/s
- CCCC[C@@H]1NC(=O)[C@H](CC(C)C)N(C)C(=O)CN(CC2CCCCC2)C(=O)[C@H](Cc2ccc3ccccc3c2)NC(=O)CN(CC(C)C)C(=O)[C@H]2CCCN2C1=O: PAMPA 0.0019 × 10^-6 cm/s
- CCCC[C@@H]1NC(=O)[C@H](CC(C)C)N(C)C(=O)CN(CCOC)C(=O)[C@H](Cc2ccccc2)NC(=O)CN(CCCCc2ccccc2)C(=O)[C@H]2CCCN2C1=O: PAMPA 0.5 × 10^-6 cm/s
- CCCC[C@@H]1NC(=O)[C@H](CC(C)C)N(C)C(=O)CN(CCOc2ccccc2)C(=O)[C@H](C)NC(=O)CN(Cc2ccc3c(c2)OCO3)C(=O)[C@H]2CCCN2C1=O: PAMPA 2.8 × 10^-6 cm/s
- CCCC[C@@H]1NC(=O)[C@H](CC(C)C)N(C)C(=O)CN(CCOc2ccccc2)C(=O)[C@H](CC(C)C)NC(=O)CN(Cc2ccc3c(c2)OCO3)C(=O)[C@H]2CCCN2C1=O: PAMPA 0.087 × 10^-6 cm/s
- CCCC[C@@H]1NC(=O)[C@H](CC(C)C)N(C)C(=O)CN(CC2CCCCC2)C(=O)[C@H](Cc2ccccc2)NC(=O)CN(CCN2CCOCC2)C(=O)[C@H]2CCCN2C1=O: PAMPA 4.8 × 10^-6 cm/s
- CCCC[C@@H]1NC(=O)[C@H](CC(C)C)N(C)C(=O)CN(CCc2cccnc2)C(=O)[C@H](C)NC(=O)CN(CCC)C(=O)[C@H]2CCCN2C1=O: PAMPA 0.11 × 10^-6 cm/s
- CCCC[C@@H]1NC(=O)[C@H](CC(C)C)N(C)C(=O)CN(CCc2cccnc2)C(=O)[C@H](Cc2ccc3ccccc3c2)NC(=O)CN(Cc2ccc3c(c2)OCO3)C(=O)[C@H]2CCCN2C1=O: PAMPA 0.038 × 10^-6 cm/s
- CCCC[C@@H]1NC(=O)[C@H](CC(C)C)N(C)C(=O)CN(CCOc2ccccc2)C(=O)[C@H](CC(C)C)NC(=O)CN(CC(C)C)C(=O)[C@H]2CCCN2C1=O: PAMPA 1.3 × 10^-6 cm/s
- CCCC[C@@H]1NC(=O)[C@H](CC(C)C)N(C)C(=O)CN(CC2CCCCC2)C(=O)[C@H](Cc2ccccc2)NC(=O)CN(Cc2ccccc2Cn2cccn2)C(=O)[C@H]2CCCN2C1=O: PAMPA 0.11 × 10^-6 cm/s
- CCCC[C@@H]1NC(=O)[C@H](CC(C)C)N(C)C(=O)CN(CC2CCOCC2)C(=O)[C@H](Cc2ccccc2)NC(=O)CN(Cc2ccc(Cl)cc2)C(=O)[C@H]2CCCN2C1=O: PAMPA 1 × 10^-6 cm/s
- CCCC[C@@H]1NC(=O)[C@H](CC(C)C)N(C)C(=O)CN(CCOc2ccccc2)C(=O)[C@H](Cc2ccc3ccccc3c2)NC(=O)CN(CCCOC(C)C)C(=O)[C@H]2CCCN2C1=O: PAMPA 0.16 × 10^-6 cm/s
- CCCC[C@@H]1NC(=O)[C@H](CC(C)C)N(C)C(=O)CN(CC2CCOCC2)C(=O)[C@H](Cc2ccccc2)NC(=O)CN(CCN2CCOCC2)C(=O)[C@H]2CCCN2C1=O: PAMPA 0.35 × 10^-6 cm/s
- CCCC[C@@H]1NC(=O)[C@H](CC(C)C)N(C)C(=O)CN(CC2CCOCC2)C(=O)[C@H](CC(C)C)NC(=O)CN(CCCOC(C)C)C(=O)[C@H]2CCCN2C1=O: PAMPA 7.2 × 10^-6 cm/s
- CCCC[C@@H]1NC(=O)[C@H](CC(C)C)N(C)C(=O)CN(CCCN2CCCC2=O)C(=O)[C@H](Cc2ccccc2)NC(=O)CN(Cc2cc(CC(C)C)on2)C(=O)[C@H]2CCCN2C1=O: PAMPA 1.9 × 10^-6 cm/s
- CCCC[C@@H]1NC(=O)[C@H](CC(C)C)N(C)C(=O)CN(CCOC)C(=O)[C@H](CC(C)C)NC(=O)CN(CCCOC(C)C)C(=O)[C@H]2CCCN2C1=O: PAMPA 8.9 × 10^-6 cm/s

Repeated from above, the 2 entries with the highest PAMPA:

- CCCC[C@@H]1NC(=O)[C@H](CC(C)C)N(C)C(=O)CN(CCOC)C(=O)[C@H](CC(C)C)NC(=O)CN(CCCOC(C)C)C(=O)[C@H]2CCCN2C1=O: PAMPA 8.9 × 10^-6 cm/s
- CCCC[C@@H]1NC(=O)[C@H](CC(C)C)N(C)C(=O)CN(CC2CCOCC2)C(=O)[C@H](CC(C)C)NC(=O)CN(CCCOC(C)C)C(=O)[C@H]2CCCN2C1=O: PAMPA 7.2 × 10^-6 cm/s